In patent publication US10676518B1, “A4B2 nicotinic acetylcholine receptors with reduced or increased nicotine sensitivity and transgenic mouse model for the same” (University of Puerto Rico, priority 2015, dated 2020):

Target: T1, α4β2 nAChRs expressed in Xenopus laevis oocytes (Rattus norvegicus, UniProt P09483+P12390)
T1 construct: expressed in transfected cells; host or cells: Xenopus laevis oocytes (stage V and VI), injected with in vitro transcribed α4 and β2 mRNA
Assay: Efficacy of agonist A-85380 versus ACh for subunit stoichiometry determination
Format: cell-based
Settings: A-85380 100 nM vs ACh 300 μM
Experimental: To determine whether the α4β2 mutations α4S469Aβ2, α4S471Dβ2, α4T536Aβ2 and α4Y576Aβ2 expressed in Xenopus laevis oocytes assemble in the α4(2):β2(3) or the α4(3):β2(2) stoichiometry, we estimated the efficacy of agonist A-85380 when compared to ACh 300 μM. […] The efficacy of A-85380 in WTα4(2):β2(3) and […] was determined by comparing the macroscopic current elicited by A-85380 100 nM and ACh 300 μM in oocytes microinjected α4β2 mRNA in 1:10 and 10:1 ratios, respectively. The efficacy of A-85380 in α4S469Aβ2, α4S471Dβ2, α4T536Aβ2 and α4Y576Aβ2 was determined by comparing the macroscopic current elicited by A-85380 100 nM and ACh 300 μM in oocytes microinjected α4β2 mRNA in 2:3 ratio. The changes in stoichiometry in these four mutants were assessed by comparing the efficacy of A-85380 in each mutant compared to WTα4(2):β2(3) and WTα4(3):β2(2).

Substance: WT α4β2: wild-type rat α4β2 neuronal nicotinic acetylcholine receptor expressed in Xenopus laevis oocytes [reference compound]
- efficacy of A-85380, 2:3 ratio compared with 1:10 ratio (α4β2 mRNA 2:3): no significant difference
- efficacy of A-85380, 10:1 ratio compared with 1:10 ratio (α4β2 mRNA 10:1): significantly lower
